In article doi:10.1101/2024.03.15.584944 (bioRxiv, 2024):

Target: T1, Zymogen rMASP-3 (human, UniProt P48740-2 20-728, RED-tris-NTA dye on the His tag (in the MST only))
T1 sequence (looked up): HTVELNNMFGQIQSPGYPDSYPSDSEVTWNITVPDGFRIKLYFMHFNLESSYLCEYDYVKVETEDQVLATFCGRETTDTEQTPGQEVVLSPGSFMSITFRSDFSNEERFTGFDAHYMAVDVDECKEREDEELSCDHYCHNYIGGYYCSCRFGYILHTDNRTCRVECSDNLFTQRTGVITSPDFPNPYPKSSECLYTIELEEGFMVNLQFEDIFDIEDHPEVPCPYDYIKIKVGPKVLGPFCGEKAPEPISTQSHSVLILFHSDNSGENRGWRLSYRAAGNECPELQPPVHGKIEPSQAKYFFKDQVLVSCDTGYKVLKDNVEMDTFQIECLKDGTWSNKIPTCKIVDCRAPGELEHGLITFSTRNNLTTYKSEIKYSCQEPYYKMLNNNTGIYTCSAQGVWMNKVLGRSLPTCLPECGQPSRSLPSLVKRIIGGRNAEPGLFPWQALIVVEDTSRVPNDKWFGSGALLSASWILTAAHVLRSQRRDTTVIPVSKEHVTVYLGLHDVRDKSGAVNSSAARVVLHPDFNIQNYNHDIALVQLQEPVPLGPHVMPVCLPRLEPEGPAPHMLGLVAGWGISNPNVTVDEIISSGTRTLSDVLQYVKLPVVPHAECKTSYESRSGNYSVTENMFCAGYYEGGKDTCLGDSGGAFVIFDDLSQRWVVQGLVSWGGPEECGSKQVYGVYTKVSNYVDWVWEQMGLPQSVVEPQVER
Assay: MST

B1: rMBL (natural protein, UniProt P11226 21-248, looked up)
chain: ETVTCEDAQKTCPAVIACSSPGINGFPGKDGRDGTKGEKGEPGQGLRGLQGPPGKLGPPGNPGPSGSPGPKGQKGDPGKSPDGDSSLAASERKALQTEMARIKKWLTFSLGKQVGNKFFLTNGEIMTFEKVKALCVKFQASVATPRNAAENGAIQNLIKEEAFLGITDEKTEGQFVDLTGNRLTYTNWNEGEPNNAGSDEDCVLLLKNGQWNDVPCSTSHLAVCEFPI
  Kd: 1.79 nM
